The conditions of this data set: in vivo.

Drawing on patent US7014858B2, “Use methods of treating acne and telangiectasia” (CollaGenex Pharmaceuticals, Inc., priority 2001, dated 2006), this text covers biodistribution for one substance.

tetracycline pyrazole [CMT-5]: the biodistribution entry is on record as “only limited biodistribution”.
